Test results as given in patent publication US11376232B2, “Vidofludimus for use in the treatment or prevention of viral diseases” (Immunic AG, priority 2020, dated 2022).

System: SARS-CoV-2 wild type or original Wuhan strain

## COc1cccc(-c2ccc(NC(=O)C3=C(C(=O)O)CCC3)c(F)c2)c1 [IMU-838, 1-cyclopentene-1-carboxylic acid, 2-(((3-fluoro-3′-methoxy(1,1′-biphenyl)-4-yl)amino)carbonyl)-, calcium salt (2:1)]
  reduction of infectivity (CCID50): ~2 log units

Counter-ions that a name gives are not always drawn.
